“And” between values parts separate entries of the source, which are not always exact repeats. Equal values may be shown once.
Key:
Experiment in all cases: radiometric filter-binding kinase assay, Kinase HotSpot
Conditions in all cases: compound 0.5 µM; ATP 10 µM
PRKG1 (human) = PRKG1 (human) (UniProt Q13976)
MAPKAPK3 (human) = MAPKAPK3 (human) (UniProt Q16644)
MAPK12 (human) = MAPK12 (human) (UniProt P53778)
MAPK9 (human) = MAPK9 (human) (UniProt P45984)
MARK3 (human) = MARK3 (human) (UniProt P27448)
ULK1 (human) = ULK1 (human) (UniProt O75385)
NEK1 (human) = NEK1 (human) (UniProt Q96PY6)
MAP4K5 (human) = MAP4K5 (human) (UniProt Q9Y4K4)
PIM1 (human) = PIM1 (human) (UniProt P11309)
NTRK1 (human) = NTRK1 (human) (UniProt P04629)
AURKA (human) = AURKA (human) (UniProt O14965)
PAK2 (human) = PAK2 (human) (UniProt Q13177)
MAPK8 (human) = MAPK8 (human) (UniProt P45983)
NEK4 (human) = NEK4 (human) (UniProt P51957)
MAP2K1 (human) = MAP2K1 (human) (UniProt Q02750)
MAPK10 (human) = MAPK10 (human) (UniProt P53779)
HIPK1 (human) = HIPK1 (human) (UniProt Q86Z02)
ACVRL1 (human) = ACVRL1 (human) (UniProt P37023)
CAMK1G (human) = CAMK1G (human) (UniProt Q96NX5)
EPHA5 (human) = EPHA5 (human) (UniProt P54756)
TAOK3 (human) = TAOK3 (human) (UniProt Q9H2K8)
MAPK1 (human) = MAPK1 (human) (UniProt P28482)
ADRBK2 (human) = ADRBK2 (human) (UniProt P35626)
CAMK2D (human) = CAMK2D (human) (UniProt Q13557)
TSSK2 (human) = TSSK2 (human) (UniProt Q96PF2)
KIT (human) = KIT (human) (UniProt P10721)
MELK (human) = MELK (human) (UniProt Q14680)
IRAK4 (human) = IRAK4 (human) (UniProt Q9NWZ3)
ERBB4 (human) = ERBB4 (human) (UniProt Q15303)
PBK (human) = PBK (human) (UniProt Q96KB5)
AXL (human) = AXL (human) (UniProt P30530)
GSK3A (human) = GSK3A (human) (UniProt P49840)
PHKG1 (human) = PHKG1 (human) (UniProt Q16816)
MINK1 (human) = MINK1 (human) (UniProt Q8N4C8)
EPHB1 (human) = EPHB1 (human) (UniProt P54762)
SRPK3 (human) = SRPK3 (human) (UniProt Q9UPE1)
GRK5 (human) = GRK5 (human) (UniProt P34947)
ITK (human) = ITK (human) (UniProt Q08881)
PIM3 (human) = PIM3 (human) (UniProt Q86V86)
MLTK (human) = MLTK (human) (UniProt Q9NYL2)
RPS6KB2 (human) = RPS6KB2 (human) (UniProt Q9UBS0)
NTRK3 (human) = NTRK3 (human) (UniProt Q16288)

Chains of the proteins cited; added tags and fusions are not shown. Lines headed by an entry give the natural chain unless they say otherwise; changes in a name come on top.
UniProt Q13976: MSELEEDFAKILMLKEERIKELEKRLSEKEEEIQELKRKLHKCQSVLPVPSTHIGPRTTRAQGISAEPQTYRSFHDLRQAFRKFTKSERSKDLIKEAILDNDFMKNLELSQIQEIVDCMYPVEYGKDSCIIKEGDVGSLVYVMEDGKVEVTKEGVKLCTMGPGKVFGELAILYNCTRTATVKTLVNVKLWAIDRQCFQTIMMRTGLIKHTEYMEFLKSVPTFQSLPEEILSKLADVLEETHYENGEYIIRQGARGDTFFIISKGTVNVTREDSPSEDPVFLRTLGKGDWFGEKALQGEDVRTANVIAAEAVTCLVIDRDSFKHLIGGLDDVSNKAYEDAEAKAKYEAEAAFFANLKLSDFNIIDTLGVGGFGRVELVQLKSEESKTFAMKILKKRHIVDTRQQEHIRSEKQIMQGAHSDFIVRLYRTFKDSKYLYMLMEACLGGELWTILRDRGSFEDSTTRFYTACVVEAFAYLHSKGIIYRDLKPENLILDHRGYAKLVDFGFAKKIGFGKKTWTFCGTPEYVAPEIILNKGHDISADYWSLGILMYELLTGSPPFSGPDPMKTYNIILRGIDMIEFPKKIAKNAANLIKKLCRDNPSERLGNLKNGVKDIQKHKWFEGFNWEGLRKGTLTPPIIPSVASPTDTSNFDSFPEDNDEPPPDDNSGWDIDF
UniProt Q16644, whole entry, looked up: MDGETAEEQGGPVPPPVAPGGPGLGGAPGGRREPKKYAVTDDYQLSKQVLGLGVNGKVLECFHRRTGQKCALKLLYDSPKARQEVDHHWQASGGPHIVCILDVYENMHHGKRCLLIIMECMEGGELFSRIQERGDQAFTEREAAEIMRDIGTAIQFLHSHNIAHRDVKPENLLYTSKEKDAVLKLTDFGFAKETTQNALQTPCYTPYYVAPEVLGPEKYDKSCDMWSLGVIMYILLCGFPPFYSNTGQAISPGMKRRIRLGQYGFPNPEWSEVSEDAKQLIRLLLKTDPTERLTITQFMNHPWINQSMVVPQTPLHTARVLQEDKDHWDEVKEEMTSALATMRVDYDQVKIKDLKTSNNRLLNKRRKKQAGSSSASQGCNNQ
UniProt O14965: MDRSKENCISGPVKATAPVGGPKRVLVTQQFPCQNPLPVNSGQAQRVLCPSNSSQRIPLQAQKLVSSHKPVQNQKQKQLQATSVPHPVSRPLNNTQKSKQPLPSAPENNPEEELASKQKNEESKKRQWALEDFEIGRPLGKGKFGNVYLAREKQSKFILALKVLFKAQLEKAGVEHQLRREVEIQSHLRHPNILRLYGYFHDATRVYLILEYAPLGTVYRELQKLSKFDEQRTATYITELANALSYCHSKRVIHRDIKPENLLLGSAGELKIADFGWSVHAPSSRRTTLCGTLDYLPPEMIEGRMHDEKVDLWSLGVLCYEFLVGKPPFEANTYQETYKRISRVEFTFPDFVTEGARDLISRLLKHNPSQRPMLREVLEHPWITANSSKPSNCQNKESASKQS
UniProt P53779: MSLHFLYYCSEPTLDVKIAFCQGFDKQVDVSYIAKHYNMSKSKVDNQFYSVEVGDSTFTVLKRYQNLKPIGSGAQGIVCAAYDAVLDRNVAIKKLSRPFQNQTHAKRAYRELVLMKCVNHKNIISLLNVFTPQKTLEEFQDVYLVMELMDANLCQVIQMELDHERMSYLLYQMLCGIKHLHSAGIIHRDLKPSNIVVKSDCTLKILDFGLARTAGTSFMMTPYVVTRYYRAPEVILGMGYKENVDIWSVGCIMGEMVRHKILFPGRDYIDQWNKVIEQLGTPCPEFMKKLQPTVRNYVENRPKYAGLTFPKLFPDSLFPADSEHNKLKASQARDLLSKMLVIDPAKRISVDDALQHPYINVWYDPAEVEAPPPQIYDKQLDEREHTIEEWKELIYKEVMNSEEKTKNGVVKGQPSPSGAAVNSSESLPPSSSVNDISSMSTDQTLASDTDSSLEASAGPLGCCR
UniProt Q9H2K8: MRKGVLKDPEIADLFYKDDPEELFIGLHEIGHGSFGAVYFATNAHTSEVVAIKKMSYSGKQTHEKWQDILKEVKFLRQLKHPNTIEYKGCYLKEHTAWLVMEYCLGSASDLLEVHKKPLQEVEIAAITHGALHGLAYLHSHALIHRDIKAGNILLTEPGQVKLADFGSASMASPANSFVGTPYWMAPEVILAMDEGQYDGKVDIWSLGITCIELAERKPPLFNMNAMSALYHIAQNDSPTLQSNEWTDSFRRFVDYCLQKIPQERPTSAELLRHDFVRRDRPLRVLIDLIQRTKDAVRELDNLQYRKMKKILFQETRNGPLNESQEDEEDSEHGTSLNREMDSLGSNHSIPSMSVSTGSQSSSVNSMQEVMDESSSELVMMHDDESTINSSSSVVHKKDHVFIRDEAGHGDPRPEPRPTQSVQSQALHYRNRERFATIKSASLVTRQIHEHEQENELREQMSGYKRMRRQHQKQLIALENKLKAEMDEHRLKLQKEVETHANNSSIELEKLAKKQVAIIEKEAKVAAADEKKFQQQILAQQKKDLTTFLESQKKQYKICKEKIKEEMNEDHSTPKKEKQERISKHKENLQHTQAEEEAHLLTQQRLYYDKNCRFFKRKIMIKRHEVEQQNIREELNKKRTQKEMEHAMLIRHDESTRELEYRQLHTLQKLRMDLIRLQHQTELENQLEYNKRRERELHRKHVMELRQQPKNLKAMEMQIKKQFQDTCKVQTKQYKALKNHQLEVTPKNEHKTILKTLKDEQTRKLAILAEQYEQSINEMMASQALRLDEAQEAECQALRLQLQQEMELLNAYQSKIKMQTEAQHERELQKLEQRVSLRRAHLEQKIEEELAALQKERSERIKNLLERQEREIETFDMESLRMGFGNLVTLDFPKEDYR
UniProt P28482, whole entry, looked up: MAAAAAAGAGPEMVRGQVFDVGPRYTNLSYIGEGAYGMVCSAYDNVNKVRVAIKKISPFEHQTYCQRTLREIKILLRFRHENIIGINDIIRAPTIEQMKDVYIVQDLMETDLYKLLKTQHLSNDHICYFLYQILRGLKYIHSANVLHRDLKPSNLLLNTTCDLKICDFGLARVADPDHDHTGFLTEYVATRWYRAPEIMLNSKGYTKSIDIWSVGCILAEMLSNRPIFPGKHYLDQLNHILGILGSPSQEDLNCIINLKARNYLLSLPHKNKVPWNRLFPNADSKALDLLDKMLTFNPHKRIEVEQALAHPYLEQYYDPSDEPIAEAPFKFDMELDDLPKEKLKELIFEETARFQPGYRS
UniProt P35626: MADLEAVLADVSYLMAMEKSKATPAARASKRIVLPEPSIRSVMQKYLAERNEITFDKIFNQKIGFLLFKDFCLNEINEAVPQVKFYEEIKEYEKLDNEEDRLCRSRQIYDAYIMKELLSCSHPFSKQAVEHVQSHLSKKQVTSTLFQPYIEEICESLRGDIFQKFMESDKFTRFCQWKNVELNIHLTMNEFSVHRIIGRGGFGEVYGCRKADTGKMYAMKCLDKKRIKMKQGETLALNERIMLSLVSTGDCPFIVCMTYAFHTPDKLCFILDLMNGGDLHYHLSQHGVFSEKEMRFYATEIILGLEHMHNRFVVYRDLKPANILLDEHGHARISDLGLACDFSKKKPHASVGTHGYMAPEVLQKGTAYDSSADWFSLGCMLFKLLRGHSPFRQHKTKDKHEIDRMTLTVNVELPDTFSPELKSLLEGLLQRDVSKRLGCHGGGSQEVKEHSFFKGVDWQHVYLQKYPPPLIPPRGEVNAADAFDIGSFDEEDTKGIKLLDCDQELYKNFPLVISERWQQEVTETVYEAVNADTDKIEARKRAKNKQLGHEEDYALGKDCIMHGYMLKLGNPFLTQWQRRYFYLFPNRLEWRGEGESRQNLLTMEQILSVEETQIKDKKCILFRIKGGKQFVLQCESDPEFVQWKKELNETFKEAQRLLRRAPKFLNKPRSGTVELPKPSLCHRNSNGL
UniProt Q13557, whole entry, looked up: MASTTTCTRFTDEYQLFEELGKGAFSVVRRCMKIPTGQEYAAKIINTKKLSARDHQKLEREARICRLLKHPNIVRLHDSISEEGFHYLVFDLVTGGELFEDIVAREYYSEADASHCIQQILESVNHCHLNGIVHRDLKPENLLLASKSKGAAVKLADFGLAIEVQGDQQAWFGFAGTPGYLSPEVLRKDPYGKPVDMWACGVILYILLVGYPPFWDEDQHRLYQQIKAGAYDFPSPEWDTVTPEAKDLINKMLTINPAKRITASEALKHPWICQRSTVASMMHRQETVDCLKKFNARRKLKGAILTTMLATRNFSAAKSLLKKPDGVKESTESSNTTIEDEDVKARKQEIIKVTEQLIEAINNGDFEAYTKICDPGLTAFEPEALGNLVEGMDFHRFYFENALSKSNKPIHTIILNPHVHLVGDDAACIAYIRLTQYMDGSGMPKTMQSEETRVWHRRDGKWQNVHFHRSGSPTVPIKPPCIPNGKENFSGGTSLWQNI
UniProt P10721, whole entry, looked up: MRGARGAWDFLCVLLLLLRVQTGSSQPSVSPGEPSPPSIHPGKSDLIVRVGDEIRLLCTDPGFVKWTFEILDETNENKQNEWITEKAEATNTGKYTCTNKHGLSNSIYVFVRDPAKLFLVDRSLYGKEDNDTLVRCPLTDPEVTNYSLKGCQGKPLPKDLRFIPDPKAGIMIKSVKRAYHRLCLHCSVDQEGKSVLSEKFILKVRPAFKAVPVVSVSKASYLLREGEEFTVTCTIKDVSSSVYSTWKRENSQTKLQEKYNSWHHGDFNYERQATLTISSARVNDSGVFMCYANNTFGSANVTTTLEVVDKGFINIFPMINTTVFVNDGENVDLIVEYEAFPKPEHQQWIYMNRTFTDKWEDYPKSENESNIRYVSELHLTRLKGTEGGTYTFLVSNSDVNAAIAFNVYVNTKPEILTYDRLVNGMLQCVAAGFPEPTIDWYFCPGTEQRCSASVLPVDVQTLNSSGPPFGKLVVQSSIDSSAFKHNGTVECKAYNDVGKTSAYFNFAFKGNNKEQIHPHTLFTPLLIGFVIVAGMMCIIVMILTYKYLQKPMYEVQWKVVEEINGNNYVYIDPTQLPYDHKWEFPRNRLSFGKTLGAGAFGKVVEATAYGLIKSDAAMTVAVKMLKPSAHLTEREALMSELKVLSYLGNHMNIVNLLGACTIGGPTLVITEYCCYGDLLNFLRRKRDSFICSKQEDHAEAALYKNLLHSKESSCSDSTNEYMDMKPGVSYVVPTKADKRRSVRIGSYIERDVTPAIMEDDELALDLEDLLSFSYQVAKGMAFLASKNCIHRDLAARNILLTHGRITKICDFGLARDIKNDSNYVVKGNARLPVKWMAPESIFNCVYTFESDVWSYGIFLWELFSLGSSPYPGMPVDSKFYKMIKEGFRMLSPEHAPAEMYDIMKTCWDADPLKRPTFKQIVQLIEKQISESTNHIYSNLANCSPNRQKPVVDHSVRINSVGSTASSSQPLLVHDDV
UniProt P49840: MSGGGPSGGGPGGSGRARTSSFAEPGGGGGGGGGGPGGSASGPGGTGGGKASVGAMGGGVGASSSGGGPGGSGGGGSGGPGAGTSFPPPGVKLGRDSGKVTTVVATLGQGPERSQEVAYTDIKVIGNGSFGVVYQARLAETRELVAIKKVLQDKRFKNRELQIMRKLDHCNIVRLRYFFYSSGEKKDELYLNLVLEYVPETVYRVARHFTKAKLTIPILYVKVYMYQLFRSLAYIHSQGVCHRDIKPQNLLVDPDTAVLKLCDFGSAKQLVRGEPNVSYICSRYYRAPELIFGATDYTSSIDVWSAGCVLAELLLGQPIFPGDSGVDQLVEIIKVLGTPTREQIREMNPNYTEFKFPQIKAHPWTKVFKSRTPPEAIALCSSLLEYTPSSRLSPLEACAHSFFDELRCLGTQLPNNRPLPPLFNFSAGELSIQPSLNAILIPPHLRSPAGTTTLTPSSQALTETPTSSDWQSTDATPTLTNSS
UniProt P34947, whole entry, looked up: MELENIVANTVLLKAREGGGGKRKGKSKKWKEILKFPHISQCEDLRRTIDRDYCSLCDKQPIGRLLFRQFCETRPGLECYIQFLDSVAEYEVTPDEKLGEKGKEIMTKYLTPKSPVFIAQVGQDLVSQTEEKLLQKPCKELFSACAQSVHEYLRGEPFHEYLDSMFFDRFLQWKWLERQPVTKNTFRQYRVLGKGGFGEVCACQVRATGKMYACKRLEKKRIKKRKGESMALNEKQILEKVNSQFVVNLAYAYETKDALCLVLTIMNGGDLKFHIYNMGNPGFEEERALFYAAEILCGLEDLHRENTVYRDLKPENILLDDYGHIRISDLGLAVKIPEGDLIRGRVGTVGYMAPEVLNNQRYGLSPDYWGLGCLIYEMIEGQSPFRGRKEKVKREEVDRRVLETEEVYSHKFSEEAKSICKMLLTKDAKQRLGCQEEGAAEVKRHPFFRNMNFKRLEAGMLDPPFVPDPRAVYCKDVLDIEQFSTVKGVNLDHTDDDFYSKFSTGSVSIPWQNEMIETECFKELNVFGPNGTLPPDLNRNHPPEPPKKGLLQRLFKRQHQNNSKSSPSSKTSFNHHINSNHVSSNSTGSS

O=C1c2ccccc2-[n+]2ccc3c([nH]c4ccccc43)c21
residual activity (PRKG1 (human)): 95.8% and 97%
residual activity (MAPKAPK3 (human)): 99.1%
residual activity (MAPK12 (human)): 96.2%
residual activity (MAPK9 (human)): 91.2%
residual activity (MARK3 (human)): 96.4%
residual activity (ULK1 (human)): 108%
residual activity (NEK1 (human)): 79.8%
residual activity (MAP4K5 (human)): 99.5%
residual activity (PIM1 (human)): 96.5%
residual activity (NTRK1 (human)): 77.4%
residual activity (AURKA (human)): 86.6%
residual activity (PAK2 (human)): 97%
residual activity (MAPK8 (human)): 110%
residual activity (NEK4 (human)): 106%
residual activity (MAP2K1 (human)): 92.9%
residual activity (MAPK10 (human)): 71.6%
residual activity (HIPK1 (human)): 98.2%
residual activity (ACVRL1 (human)): 102%
residual activity (CAMK1G (human)): 91%
residual activity (EPHA5 (human)): 106%
residual activity (TAOK3 (human)): 100%
residual activity (MAPK1 (human)): 119%
residual activity (ADRBK2 (human)): 99.7%
residual activity (CAMK2D (human)): 98.5%
residual activity (TSSK2 (human)): 95.6%
residual activity (KIT (human)): 86.8%
residual activity (MELK (human)): 68.5%
residual activity (IRAK4 (human)): 90.8%
residual activity (ERBB4 (human)): 93.6%
residual activity (PBK (human)): 94.2%
residual activity (AXL (human)): 81.1%
residual activity (GSK3A (human)): 99.7%
residual activity (PHKG1 (human)): 100%
residual activity (MINK1 (human)): 83.2%
residual activity (EPHB1 (human)): 106%
residual activity (SRPK3 (human)): 81.9%
residual activity (GRK5 (human)): 105%
residual activity (ITK (human)): 101%
residual activity (PIM3 (human)): 102%
residual activity (MLTK (human)): 90.4%
residual activity (RPS6KB2 (human)): 95.3%
residual activity (NTRK3 (human)): 94.1%

From the kinase profiling compilation of Christmann-Franck et al. (2016)
